How the values were obtained:
Histone deacetylase = experiment: Inhibition of HDAC in human HeLa cell nuclear extract after 30 mins by fluorescence microplate reader; format: protein assay
Histone deacetylase 1 = Histone deacetylase 1 (Homo sapiens, UniProt Q13547); experiment: Inhibition of human recombinant HDAC1 after 30 mins by fluorometric assay

Work on O=C(/C=C/c1ccc2c(ccn2S(=O)(=O)c2ccccc2)c1)NO yielded an IC50 (Histone deacetylase) of 29.5 nM and an IC50 (Histone deacetylase 1) of 12.3 nM.

— ChEMBL document CHEMBL2046324, “Synthesis and biological evaluation of 1-arylsulfonyl-5-(N-hydroxyacrylamide)indoles as potent histone deacetylase inhibitors with antitumor activity in vivo” (J Med Chem, 2012)
